The test system of the data set is MCF10A and MCF7 cell lines. Description: RA metabolites in MCF7 and MCF10A cell lines exposed to RA.

With `CC1=C(/C=C/C(C)=C/C=C/C(C)=C/C(=O)O)C(C)(C)CCC1` [RA, all-trans retinoic acid], the “total aqueous soluble metabolites, exposed to RA vs control” value (MCF7 cells) is “much greater”. For the setting “MCF10A cell line”, the “lipid soluble metabolites, exposed to RA vs control” value was “little difference”. The “total aqueous soluble metabolites, induced vs control” value (MCF10A cells) is “about the same”.

Values taken from patent publication US7335484B2, “Retinoid metabolizing protein” (Queen's University at Kingston, priority 1996, dated 2008).
